CycPeptMPDB entries from one study

Collected by the curators of CycPeptMPDB (Li et al. 2023) from Townsend et al. 2020, doi:10.26434/chemrxiv.13335941.v1.

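Lipid, pH, incubation time, direction and concentration are not recorded in the data file. The list need not hold all peptides of the study. Entries at the database's floor value (log10 P of -10) are not listed.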

PAMPA is the parallel artificial membrane permeability assay, which has no cells and reads passive diffusion.
Values are log10 P with P in cm/s, so -5 is more permeable than -7.

structure (SMILES) | PAMPA (log10 cm/s)
CC(C)C[C@@H]1NC(=O)C[C@H](Cc2ccccc2)NC(=O)[C@@H]2CCCN2C(=O)[C@H](Cc2ccccc2)NC(=O)[C@@H](CC(C)C)N(C)C(=O)[C@@H]2CCCN2C(=O)CN(Cc2ccccc2)C1=O | -5.65
CC(C)C[C@@H]1C(=O)N(C)[C@@H](CC(C)C)C(=O)N2CCC[C@@H]2C(=O)N(Cc2ccccc2)CC(=O)N[C@@H](Cc2ccccc2)C(=O)N2CCC[C@@H]2C(=O)N(C)[C@H](C)C(=O)N1C | -6.28
CC(C)C[C@@H]1C(=O)N2CCC[C@@H]2C(=O)N(Cc2ccccc2)CC(=O)N[C@@H](Cc2ccccc2)C(=O)N2CCC[C@@H]2C(=O)N[C@H](C)C(=O)N(C)[C@H](CC(C)C)C(=O)N1C | -5.27
CCCN1CC(=O)N[C@@H](CC(C)C)C(=O)N(C)[C@H](CC(C)C)C(=O)N2CCC[C@H]2C(=O)N[C@@H](CC(C)C)C(=O)N[C@@H](Cc2ccccc2)C1=O | -5.20
CC(C)C[C@H]1NC(=O)[C@H]2CCCN2C(=O)C[C@H](Cc2ccccc2)NC(=O)[C@H](CC(C)C)N(C)C(=O)[C@@H](C)NC(=O)[C@H]2CCCN2C(=O)[C@H](Cc2ccccc2)NC1=O | -5.76
CC(C)C[C@H]1C(=O)N[C@@H](Cc2ccccc2)C(=O)N2CCC[C@@H]2C(=O)N[C@H](C)C(=O)N(C)[C@@H](CC(C)C)C(=O)N(C)[C@@H](CC(C)C)C(=O)N2CCC[C@@H]2C(=O)N1C | -5.34
CC(C)C[C@@H]1C(=O)N[C@H](CC(C)C)C(=O)N2CCC[C@H]2C(=O)N(C)[C@@H](CC(C)C)C(=O)N[C@@H](Cc2ccccc2)C(=O)N2CCC[C@@H]2C(=O)N[C@H](C)C(=O)N1C | -6.20
CCCN1CC(=O)N[C@@H](CC(C)C)C(=O)N[C@@H](Cc2ccccc2)CC(=O)N2CCC[C@@H]2C(=O)N(C)[C@H](CC(C)C)C(=O)N[C@@H](Cc2ccccc2)C(=O)N2CCC[C@@H]2C1=O | -5.87
CCCN1CC(=O)N(C)[C@@H](CC(C)C)C(=O)N(C)[C@H](CC(C)C)C(=O)N2CCC[C@H]2C(=O)N[C@@H](CC(C)C)C(=O)N[C@@H](Cc2ccccc2)C(=O)N2CCC[C@@H]2C1=O | -5.96
CC(C)C[C@@H]1NC(=O)[C@H](C)N(C)C(=O)[C@H](Cc2ccccc2)NC(=O)[C@H](CC(C)C)N(C)C(=O)[C@H]2CCCN2C(=O)[C@H](CC(C)C)NC1=O | -5.43
CC(C)C[C@@H]1NC(=O)[C@@H](CC(C)C)N(C)C(=O)[C@@H](C)N(C)C(=O)[C@@H]2CCCN2C(=O)[C@H](Cc2ccccc2)NC(=O)[C@@H](CC(C)C)N(C)C(=O)[C@@H]2CCCN2C1=O | -5.27
CC(C)C[C@@H]1NC(=O)[C@@H](C)NC(=O)[C@H](Cc2ccccc2)NC(=O)[C@@H](CC(C)C)NC(=O)[C@@H]2CCCN2C(=O)[C@@H](CC(C)C)NC1=O | -6.22
CCCN1CC(=O)N(C)[C@@H](CC(C)C)C(=O)N[C@H](CC(C)C)C(=O)N2CCC[C@H]2C(=O)N(Cc2ccccc2)CC(=O)N[C@@H](Cc2ccccc2)C(=O)N2CCC[C@H]2C1=O | -5.30
CC(C)C[C@@H]1NC(=O)[C@H](CC(C)C)N(C)C(=O)C[C@H](Cc2ccccc2)NC(=O)[C@H](Cc2ccccc2)NC(=O)[C@H](CC(C)C)N(C)C(=O)[C@H]2CCCN2C1=O | -5.31
CC(C)C[C@H]1NC(=O)[C@H](C)NC(=O)[C@H](Cc2ccccc2)NC(=O)CN(Cc2ccccc2)C(=O)[C@H]2CCCN2C(=O)[C@H](CC(C)C)N(C)C1=O | -5.45
CC(C)C[C@H]1NC(=O)[C@@H]2CCCN2C(=O)CN(Cc2ccccc2)C(=O)[C@H](CC(C)C)N(C)C(=O)[C@@H](C)NC(=O)[C@H]2CCCN2C(=O)[C@H](Cc2ccccc2)NC1=O | -5.26
CC(C)C[C@@H]1NC(=O)[C@H](CC(C)C)N(C)C(=O)[C@@H](C)NC(=O)[C@H](Cc2ccccc2)NC(=O)[C@@H](CC(C)C)N(C)C(=O)[C@@H]2CCCN2C1=O | -5.49

3 of these entries, quoted again:

structure (SMILES) | PAMPA (log10 cm/s)
CC(C)C[C@@H]1NC(=O)[C@@H](C)NC(=O)[C@H](Cc2ccccc2)NC(=O)[C@@H](CC(C)C)NC(=O)[C@@H]2CCCN2C(=O)[C@@H](CC(C)C)NC1=O | -6.22
CC(C)C[C@H]1C(=O)N[C@@H](Cc2ccccc2)C(=O)N2CCC[C@@H]2C(=O)N[C@H](C)C(=O)N(C)[C@@H](CC(C)C)C(=O)N(C)[C@@H](CC(C)C)C(=O)N2CCC[C@@H]2C(=O)N1C | -5.34
CCCN1CC(=O)N[C@@H](CC(C)C)C(=O)N[C@@H](Cc2ccccc2)CC(=O)N2CCC[C@@H]2C(=O)N(C)[C@H](CC(C)C)C(=O)N[C@@H](Cc2ccccc2)C(=O)N2CCC[C@@H]2C1=O | -5.87